Sequences of proteins named here, by UniProt entry; tags and fusion partners are left off. A change or cut given only in a name is not applied to a line headed by its entry.
UniProt P45983: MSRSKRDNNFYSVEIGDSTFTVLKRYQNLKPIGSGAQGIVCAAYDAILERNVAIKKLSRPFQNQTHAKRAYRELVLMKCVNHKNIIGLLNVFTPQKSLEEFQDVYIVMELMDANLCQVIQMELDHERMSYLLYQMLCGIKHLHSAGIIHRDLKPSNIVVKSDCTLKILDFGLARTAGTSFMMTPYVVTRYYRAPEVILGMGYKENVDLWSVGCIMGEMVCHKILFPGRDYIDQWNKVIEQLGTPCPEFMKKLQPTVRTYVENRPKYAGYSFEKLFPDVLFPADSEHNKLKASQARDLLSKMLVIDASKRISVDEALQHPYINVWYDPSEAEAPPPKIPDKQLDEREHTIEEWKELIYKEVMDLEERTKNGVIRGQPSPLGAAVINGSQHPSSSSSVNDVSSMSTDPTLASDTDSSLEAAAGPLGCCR
UniProt Q16539, whole entry: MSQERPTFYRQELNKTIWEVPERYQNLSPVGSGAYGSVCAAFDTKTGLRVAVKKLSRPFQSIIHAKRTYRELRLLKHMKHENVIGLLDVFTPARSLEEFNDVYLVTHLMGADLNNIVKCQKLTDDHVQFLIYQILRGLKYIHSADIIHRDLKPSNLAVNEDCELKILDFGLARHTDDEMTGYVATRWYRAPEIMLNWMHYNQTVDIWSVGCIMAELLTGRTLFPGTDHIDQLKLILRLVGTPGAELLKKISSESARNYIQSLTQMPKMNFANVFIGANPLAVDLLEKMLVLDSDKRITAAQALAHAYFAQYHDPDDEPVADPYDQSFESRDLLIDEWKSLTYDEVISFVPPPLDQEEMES
UniProt P53779: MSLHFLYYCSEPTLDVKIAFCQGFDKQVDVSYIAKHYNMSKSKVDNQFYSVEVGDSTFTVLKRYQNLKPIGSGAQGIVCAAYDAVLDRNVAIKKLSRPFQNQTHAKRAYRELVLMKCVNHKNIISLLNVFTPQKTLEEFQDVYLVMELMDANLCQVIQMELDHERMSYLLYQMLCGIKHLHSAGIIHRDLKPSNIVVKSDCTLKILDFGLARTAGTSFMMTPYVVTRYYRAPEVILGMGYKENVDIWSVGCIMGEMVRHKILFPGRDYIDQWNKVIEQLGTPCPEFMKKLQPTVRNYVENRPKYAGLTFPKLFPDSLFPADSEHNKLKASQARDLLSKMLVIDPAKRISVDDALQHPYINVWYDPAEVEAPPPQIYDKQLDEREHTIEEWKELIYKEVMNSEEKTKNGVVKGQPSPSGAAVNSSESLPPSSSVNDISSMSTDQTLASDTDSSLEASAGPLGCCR

In US12448375B2, “Kinase inhibitors for the treatment of neurodegenerative diseases” (Ohio State Innovation Foundation, priority 2019, dated 2025):

Columns and labels:
Format in all cases: biochemical
JNK1 = molecular target: T1, JNK1 (Homo sapiens, UniProt P45983); assay: HotSpot Kinase Assay, JNK1
T1 construct: purchased Reaction Biology Corp
Description: (§1) The anti-JNK3 activity of compounds prepared as in the previous examples was evaluated using a Reaction Biology Corp. HotSpot Kinase Assay. Base reaction buffer was 20 mM HEPES (4-(2-hydroxyethyl)-1-piperazineethanesulfonic acid) at pH 7.5 with 10 mM MgCl2, 1 mM EGTA (ethylene glycol-bis(β-aminoethyl ether)-N,N,N′,N′-tetracetic acid), 0.02% Brij™ 35, 0.02 mg/mL BSA (bovine serum albumin), 0.1 mM Na3VO4, 2 mM DTT (dithiothreitol), and 1% DMSO. Required cofactors were added individually to each kinase reaction.
(§2) Activity against related enzymes JNK1 and P38a was further assessed using the same assay.

p38a = molecular target: T2, p38a (Homo sapiens, UniProt Q16539); assay: HotSpot Kinase Assay, P38a
T2 construct: purchased Reaction Biology Corp
Description: as §1, §2

JNK3 = molecular target: T3, JNK3 (Homo sapiens, UniProt P53779); assay: HotSpot Kinase Assay (Reaction Biology Corp.), anti-JNK3 activity
T3 construct: purchased Reaction Biology Corp
Description: as §1, §2

Compound	IC50 (JNK1)	IC50 (p38a)	IC50 (JNK3)
CNC(=O)c1cc(-n2ncc3cc(Oc4ccccc4Cl)ccc32)cs1 [Compound 8, 4-(5-(2-chlorophenoxy)-1H-indazol-1-yl)-N-methylthiophene-2-carboxamide]	> 1000 nM	200 to 1000 nM	< 200 nM
Cc1nc2c(cnn2-c2csc(C(=O)NC3COC3)c2)cc1Nc1c(F)cccc1Cl [Compound 101, 4-(5-((2-chloro-6-fluorophenyl)amino)-6-methyl-1H-pyrazolo[3,4-b]pyridin-1-yl)-N-(oxetan-3-yl)thiophene-2-carboxamide]	200 to 1000 nM	200 to 1000 nM	< 200 nM
